An excerpt weighted towards active compounds, which were near 4.2% of everything screened.
ALR H2O2 inh = blocks human ALR sulfhydryl oxidase activity | inhibition, % (concentration not given with the values) | AID 485317 | P55789 | 290,000 tested, 3.8% active | purified ALR, DTT oxidation, H2O2 HRP-luminol luminescence;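 active = mean and each replicate at 75% or more; inconclusive = only one of the two met; inactive = neither met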;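 note: stock transfer was 7.5 nL into about 7.5 µL; 0% = neutral wells and 100% = wells with inactivated enzyme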
MC4R ag barr = MC4R agonists recruiting beta-arrestin, primary screen, cell-based, luminescence, agonist arm of biased-ligand search; Melanocortin receptor 4 (Homo sapiens), P32245; U2OS MC4R beta-arrestin complementation; percent of melanotan II response, DMSO zero; activation, % at 8.9 µM; 360,000 compounds, 0.98% hits; AID 540308, 2011;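 active means activation above a per-plate cutoff, the mean activation of sample wells on that plate plus 3 SD, cut at about 8% in these data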
NALP1 inh = NALP1 inflammasome inhibitors in reconstituted yeast, colorimetric, S. cerevisiae, triplicate retest. S. cerevisiae NALP1/ASC/caspase-1 growth, X-gal OD620, 72 h. inhibition, % at 10 µM. 280,000 compounds, 0.61% hits. AID 2071, 2009; in the data active means inhibition mostly above about 24%, no sharp cut-off; inactive means mostly below about 32%
Yeast UUG start-1 = modulators of start codon recognition fidelity in yeast; S. cerevisiae UUG-firefly luciferase reporter, luminescence/redox ratio; activity score, % at 18.7 µM; hit rate 0.13% among 350,000; AID 602363;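 active = replicate mean at a twofold rise or more, about +100% in these data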;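 note: firefly luciferase made from a UUG start codon reports start codon fidelity; reporter light over untreated wells divided by growth signal over untreated wells; some hits fall short of that in this replicate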
MC4R antagonist = MC4R antagonists of cAMP signaling, primary screen, cell-based, TR-FRET, antagonist arm of biased-ligand search | MC4R-expressing cells, MTII-stimulated cAMP, LANCE TR-FRET | inhibition, % at 6.5 µM | Melanocortin receptor 4 (Homo sapiens), P32245 | 360,000 compounds, 0.48% hits;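 active means inhibition above its plate's cutoff, the mean of tested wells on that plate plus 3 SD, cut at about 29% in these data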;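 further: 0% = Melanotan II alone and 100% = Melanotan II plus saturating MCL0020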
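Material: human MC4R-expressing U2OS cells. Probe or stimulus: Melanotan II challenge. Dosing: 6.5 µM single dose. Times: 30-min compound, 1-h challenge, 1-h detection, room temperature. Technique: TR-FRET with Eu-cAMP and labeled anti-cAMP, 671 nm. Replication: singlicate.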
HDAC3 inh = HDAC3 deacetylase inhibitors, primary screen, biochemical, fluorescence, cell-free homogeneous | Histone deacetylase 3 (Homo sapiens), O15379 | recombinant HDAC3, fluorogenic peptide/trypsin coupled | inhibition, % at 8.3 µM | 320,000 compounds, 0.15% hits; in the data active means inhibition above about 26%, passing the limit was not always enough; inconclusive means no clear call, values can overlap the other calls
Yeast UUG start-2 = enhancers of UUG start codon usage in yeast, dose response, S. cerevisiae, UUG firefly luciferase, cherry-pick, set 2. shares compounds with Yeast UUG start-1. luminescence, 4 h; 100% means double the DMSO signal. activation, % at 38 µM. 540 tested, under 10 active. AID 652061, 2013;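 active means signal increase whose fitted curve reaches an absolute level of 40 at a concentration under 10 µM; inactive means activity opposite to the expected increase, or the rest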
Numbers without * were called inactive; i = inactive; ? = inconclusive; nt = not tested or not shown; ! = a repeat was not active.

Amino acid sequences for entries named in this document (tags omitted).
Melanocortin receptor 4 (Homo sapiens), P32245, UniProt P32245, whole entry, looked up: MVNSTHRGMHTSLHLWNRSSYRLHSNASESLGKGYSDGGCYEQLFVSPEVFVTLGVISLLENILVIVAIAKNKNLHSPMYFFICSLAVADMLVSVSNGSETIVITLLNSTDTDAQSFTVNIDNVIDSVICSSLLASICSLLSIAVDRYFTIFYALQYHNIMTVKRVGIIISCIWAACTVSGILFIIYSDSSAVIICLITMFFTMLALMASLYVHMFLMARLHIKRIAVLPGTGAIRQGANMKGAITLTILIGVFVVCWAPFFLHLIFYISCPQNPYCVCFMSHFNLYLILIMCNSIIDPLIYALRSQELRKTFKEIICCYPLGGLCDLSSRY

| # | SMILES | ALR H2O2 inh | MC4R ag barr | NALP1 inh | Yeast UUG start-1 |
| --- | --- | --- | --- | --- | --- |
| 1 | Cn1c(=O)[nH]c(=O)c2c1nc(Br)n2C/C=N/NC(=O)c1ccccc1 | -3 | -1 | -7 | 136* |
| 2 | Cc1sc2nc(CN3CCOCC3)nc(N3CCC(C(N)=O)CC3)c2c1C | nt | 0 | nt | 286* |
| 3 | CCOc1ccc(CCNS(=O)(=O)c2c(C)cc(C)cc2C)cc1OCC | nt | nt | nt | nt |
| 4 | COc1ccccc1-c1ccc([C@@H]2[C@H]3CN(C(=O)c4cccnc4)CCCCN3[C@H]2CO)cc1 | nt | nt | nt | 0 |
| 5 | O=c1cc(CO)occ1OCc1ccccc1 | 0 | -1 | 42 | 484* |
| 6 | COc1ccc(-c2noc(Cc3ccccc3OC)n2)cc1 | nt | 5 | 28 | 0 |
| 7 | COc1ccc(-c2noc(Cc3cccs3)n2)cc1 | -3 | 3 | 22 | active |
| 8 | CC(C)NC(=O)N(C)C[C@H]1Oc2cc(C#CC3CC3)ccc2S(=O)(=O)N([C@H](C)CO)C[C@H]1C | nt | nt | nt | 7 |
| 9 | COCC(=O)Nc1ccc2c(c1)OC[C@@H](C)N(C(=O)COC)C[C@@H](C)[C@@H](OC)CN(C)C2=O | nt | nt | nt | 197* |
| 10 | COCC(=O)Nc1ccc2c(c1)C(=O)N(C)C[C@@H](OC)[C@H](C)CN(Cc1ccccc1F)[C@H](C)CO2 | nt | nt | nt | 3 |
| 11 | COCC(=O)Nc1ccc2c(c1)C(=O)N(C)C[C@@H](OC)[C@@H](C)CN(Cc1ccccc1F)[C@@H](C)CO2 | nt | nt | nt | 180* |
| 12 | CO[C@@H]1CN(C)C(=O)c2ccc(NC(=O)c3ccccc3F)cc2OC[C@H](C)N(C(C)=O)C[C@@H]1C | nt | nt | nt | 123* |

| # | MC4R antagonist | HDAC3 inh | Yeast UUG start-2 |
| --- | --- | --- | --- |
| 1 | 6 | 1 | 0 |
| 2 | 3 | 1 | -8 |
| 3 | nt | nt | i |
| 4 | nt | nt | nt |
| 5 | 1 | 0 | 7 |
| 6 | 9 | -6 | nt |
| 7 | 10 | 2 | -4 |
| 8 | nt | nt | nt |
| 9 | nt | nt | i |
| 10 | nt | nt | nt |
| 11 | nt | nt | i |
| 12 | nt | nt | i |

The last two records of the part before lead into the next:
| # | SMILES | ALR H2O2 inh | MC4R ag barr | NALP1 inh | Yeast UUG start-1 |
| --- | --- | --- | --- | --- | --- |
| 11 | COCC(=O)Nc1ccc2c(c1)C(=O)N(C)C[C@@H](OC)[C@@H](C)CN(Cc1ccccc1F)[C@@H](C)CO2 | nt | nt | nt | 180* |
| 12 | CO[C@@H]1CN(C)C(=O)c2ccc(NC(=O)c3ccccc3F)cc2OC[C@H](C)N(C(C)=O)C[C@@H]1C | nt | nt | nt | 123* |
| 13 | COCC(=O)Nc1ccc2c(c1)OC[C@@H](C)N(C(=O)c1cnccn1)C[C@@H](C)[C@@H](OC)CN(C)C2=O | nt | nt | nt | 156* |
| 14 | CO[C@@H]1CN(C)C(=O)c2ccc(NC(=O)c3ccccc3F)cc2OC[C@@H](C)N(C(C)=O)C[C@@H]1C | nt | nt | nt | 2 |
| 15 | C[C@@H]1CN([C@H](C)CO)C(=O)Cc2cc(NC(=O)C3CCCCC3)ccc2O[C@H]1CN(C)C(=O)Nc1ccc(F)cc1 | nt | nt | nt | 15 |
| 16 | CCCN1C[C@@H](C)[C@H](OC)CN(C)C(=O)c2ccc(NC(=O)c3cccc(OC)c3)cc2OC[C@H]1C | nt | nt | nt | 7 |
| 17 | Cc1cc(C(=O)CSc2nnc(-c3cccnc3)n2-c2ccccc2F)c(C)n1C | 9 | 0 | nt | -5 |
| 18 | Cn1c(SCC(=O)c2ccc(O)cc2O)nnc1-c1ccccc1 | -2 | -1 | 19 | nt |
| 19 | NC(=O)CSc1nc2ccccc2c(=O)n1Cc1ccco1 | -17 | -1 | -4 | -13 |
| 20 | Cc1cc(C(=O)CSc2nnc3ccccn23)c(C)n1-c1ccccc1 | -1 | 1 | 26 | nt |
| 21 | Cc1cc(C(=O)CSc2nnc(-c3ccccc3)n2C)c(C)n1C | 6 | -2 | 2 | -8 |
| 22 | Cc1cc(C(=O)CSc2nnc(-c3ccccc3)n2-c2ccccc2)c(C)n1-c1ncn[nH]1 | -6 | 1 | -9 | 653* |
| 23 | CCCn1c(C)cc(C(=O)CSc2nc3ccccc3c(=O)n2Cc2ccco2)c1C | 99* | 1 | 15 | -21 |
| 24 | COCC(C)n1c(SCC(=O)c2cc(C)n(C)c2C)nc2ccccc2c1=O (stereo not drawn) | ? | -2 | 14 | 1 |

| # | MC4R antagonist | HDAC3 inh | Yeast UUG start-2 |
| --- | --- | --- | --- |
| 11 | nt | nt | i |
| 12 | nt | nt | i |
| 13 | nt | nt | i |
| 14 | nt | nt | nt |
| 15 | nt | nt | nt |
| 16 | nt | nt | nt |
| 17 | 4 | 4 | 9 |
| 18 | -1 | 6 | nt |
| 19 | 0 | 0 | nt |
| 20 | 13 | 3 | nt |
| 21 | 13 | -1 | -7 |
| 22 | 7 | -1 | 11 |
| 23 | 5 | 5 | 15 |
| 24 | 4 | 4 | -1 |

Following part
| # | SMILES | ALR H2O2 inh | MC4R ag barr | NALP1 inh | Yeast UUG start-1 |
| --- | --- | --- | --- | --- | --- |
| 25 | Cc1cc(C(=O)CSc2nnc(-c3ccncc3)n2-c2ccccc2)c(C)n1C | 17 | -1 | 4 | nt |
| 26 | COCC(C)n1c(C)cc(C(=O)CSc2nc3ccccc3c(=O)[nH]2)c1C (stereo not drawn) | -7 | -1 | 32 | -6 |
| 27 | CCC(=O)N1C[C@@H](C)[C@H](OC)CN(C)C(=O)c2ccc(NC(=O)Nc3ccccc3)cc2OC[C@H]1C | nt | nt | nt | 7 |
| 28 | COc1ccc(CN2C(=O)[C@@H]3[C@H]4C(=O)O[C@H](c5ccccc5)[C@@H](C)N(C)C(=O)CC/C=C/[C@H]4O[C@@]34C=CCN(Cc3ccccc3)C(=O)[C@@H]24)cc1 | nt | nt | nt | 12*! |
| 29 | C=CCN(Cc1ccccc1)C(=O)[C@H]1N(Cc2ccc(OC)cc2)C(=O)[C@@H]2[C@@H](C(=O)O)C3C=CC21O3 (stereo partly drawn) | nt | nt | nt | -6 |
| 30 | O=C(CNC(=O)c1cccc(F)c1)OCC(=O)N1CCN(C(=O)c2ccco2)CC1 | nt | -3 | nt | 213* |
| 31 | CC(C)CC#Cc1cnc2c(c1)C(=O)N([C@H](C)CO)C[C@H](C)[C@@H](CN(C)C(=O)CCN1CCCCC1)O2 | nt | nt | nt | 6 |
| 32 | CCCC#Cc1cnc2c(c1)C(=O)N([C@H](C)CO)C[C@H](C)[C@@H](CN(C)C(=O)CCN1CCCCC1)O2 | nt | 1 | nt | 166* |
| 33 | CC(C)CC#Cc1cnc2c(c1)C(=O)N([C@H](C)CO)C[C@H](C)[C@@H](CN(C)C(=O)CC1CC1)O2 | nt | nt | nt | 147* |
| 34 | C[C@@H]1CCCCO[C@@H](CN(C)C(=O)Cc2ccccc2)[C@@H](C)CN([C@H](C)CO)C(=O)c2cc(NC(=O)Nc3ccc(C(F)(F)F)cc3)ccc2O1 | nt | nt | nt | -16 |
| 35 | C[C@H](CO)N1C[C@H](C)[C@@H](CN(C)C(=O)Nc2ccc(C(F)(F)F)cc2)Oc2ccc(N(C)C)cc2CC1=O | nt | nt | nt | 20 |
| 36 | CC(C)(C)c1ccc(C(=O)N2CCCCCC2=O)cc1 | -9 | -3 | -5 | 279* |

| # | MC4R antagonist | HDAC3 inh | Yeast UUG start-2 |
| --- | --- | --- | --- |
| 25 | 1 | ? | 7 |
| 26 | 5 | -2 | nt |
| 27 | nt | nt | nt |
| 28 | nt | nt | i |
| 29 | nt | nt | nt |
| 30 | 4 | -3 | -2 |
| 31 | nt | nt | nt |
| 32 | -2 | nt | 4 |
| 33 | nt | nt | i |
| 34 | nt | nt | nt |
| 35 | nt | nt | nt |
| 36 | -2 | -2 | 9 |

(next part)
| # | SMILES | ALR H2O2 inh | MC4R ag barr | NALP1 inh | Yeast UUG start-1 |
| --- | --- | --- | --- | --- | --- |
| 37 | O=C1CCCCCN1C(=O)c1ccccc1 | nt | -2 | nt | nt |
| 38 | N#Cc1ccccc1OCc1cn(CC(=O)c2ccc(O)cc2)nn1 | nt | -2 | nt | 152* |
| 39 | O=C(C1CCCCC1)N1C[C@@H]2[C@H](c3ccccc31)[C@H](CO)N2C(=O)Cc1ccccn1 | nt | nt | nt | -10 |
| 40 | O=C(C1CCCC1)N1C[C@H]2[C@@H](c3ccccc31)[C@H](CO)N2C(=O)Cc1ccccn1 | nt | nt | nt | -8 |
| 41 | O=C(C1CCC1)N1C[C@H]2[C@@H](c3ccccc31)[C@H](CO)N2C(=O)Cc1ccccn1 | nt | nt | nt | 130* |
| 42 | COc1ccccc1CN1[C@@H]2CN(C(=O)C3CCC3)c3ccccc3[C@@H]2[C@@H]1CO | nt | nt | nt | 128* |

| # | MC4R antagonist | HDAC3 inh | Yeast UUG start-2 |
| --- | --- | --- | --- |
| 37 | 1 | nt | nt |
| 38 | 1 | nt | 11 |
| 39 | nt | nt | nt |
| 40 | nt | nt | nt |
| 41 | nt | nt | i |
| 42 | nt | nt | i |

Individual results from the list.
`CC(C)CC#Cc1cnc2c(c1)C(=O)N([C@H](C)CO)C[C@H](C)[C@@H](CN(C)C(=O)CC1CC1)O2` @ Yeast UUG start-1: 147*
`C=CCN(Cc1ccccc1)C(=O)[C@H]1N(Cc2ccc(OC)cc2)C(=O)[C@@H]2[C@@H](C(=O)O)C3C=CC21O3` (stereo partly drawn) @ Yeast UUG start-1: -6
`CC(C)CC#Cc1cnc2c(c1)C(=O)N([C@H](C)CO)C[C@H](C)[C@@H](CN(C)C(=O)CCN1CCCCC1)O2` @ Yeast UUG start-1: 6
`N#Cc1ccccc1OCc1cn(CC(=O)c2ccc(O)cc2)nn1` @ MC4R ag barr: -2

Compound activity as filed in PubChem.
